These are literature values, as cited in paper PMC9037210, “Novel 3-(6-methylpyridin-2-yl)coumarin-based chalcones as selective inhibitors of cancer-related carbonic anhydrases IX and XII endowed with anti-proliferative activity” (Journal of Enzyme Inhibition and Medicinal Chemistry, 2022).

The series has as its target T1, hCA II (Homo sapiens, UniProt P00918).
T1 construct: made in house
The conditions noted are these: Figure 1; read-out: hCA II inhibition; cited from earlier work.

pKi: −log10 of the molar value.

For `O=Cc1ccccc1OCc1cn(CCCOc2ccc3ccc(=O)oc3c2)nn1` [V], the pKi was less than 5.00.
